Ab-14 heavy chain CDR variants: yeast mating affinities

From the AlphaSeq antibody data of Engelhart et al. 2022 (doi:10.1038/s41597-022-01779-4), copy in the FLAb collection.

Antigen: PDVDLGDISGINAS, a 14-residue peptide of the SARS-CoV-2 spike HR2 region.

Parent: Ab-14, a human scFv built as VH, a (GGGGS)3 linker, VL. Only the CDRs of the heavy chain vary.
VH: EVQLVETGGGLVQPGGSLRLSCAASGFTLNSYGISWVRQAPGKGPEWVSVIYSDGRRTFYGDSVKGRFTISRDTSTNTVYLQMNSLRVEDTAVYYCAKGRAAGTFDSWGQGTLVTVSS
VL: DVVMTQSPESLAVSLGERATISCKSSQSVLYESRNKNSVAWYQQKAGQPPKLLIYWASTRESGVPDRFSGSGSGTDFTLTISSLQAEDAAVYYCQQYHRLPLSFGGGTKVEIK

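AAYL49 was designed without a model: most single CDR substitutions and a random sample of double and triple ones. The scFvs were displayed on barcoded MATa yeast, the peptide on MATalpha yeast. Mating (16 h, 30 °C) was followed by selection of diploids and sequencing of their barcodes. The ratio of observed to expected reads was calibrated, replicate by replicate, on BCL2-family standards whose Kd was known from biolayer interferometry. There are three technical replicates.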

Each variant is given by its three heavy chain CDRs, as the data file delimits them; those of the parent are GFTLNSYGIS, VIYSDGRRTFYGDSVK, GRAAGTFDS.
Affinities are written as log10 Kd with Kd in nM; a lower number is a better binder.
The mean shown is taken over the replicates in which the pair was detected.
A pair that was not seen in any replicate is written "not detected"; this usually means weak binding, but a binder can also be missed.
Empty control strains, which show no peptide, gave a signal in 15% of pairings with library AAYL49; the median was 4.06 and 95% of these signals were weaker than 2.83. No background was subtracted.

| # | log10 Kd (nM), mean | detected | CDR-H1 | CDR-H2 | CDR-H3 |
|---|---|---|---|---|---|
| 1 | not detected | 0 of 3 | GFTLNSYGIS | VMYSDGRRTFYGISVK | IRAAGTFDS |
| 2 | not detected | 0 of 3 | GFTLNSYGIS | VIYSDGRRTFYGDSVK | GWAAGLFDR |
| 3 | not detected | 0 of 3 | GFVLNSYGIS | VEYSDGRRTFYGDSVK | GRAAGPFDS |
| 4 | 1.78 | 3 of 3 | GFTLESYGIS | VIYSDGRRFFYGDSVK | GRAAGTFDS |
| 5 | not detected | 0 of 3 | GFTLNSYGIS | VIYSDGRDTFYGDSVK | GRWAGTFDW |
| 6 | not detected | 0 of 3 | YFPLNSKGIS | VIYSDGRRTFYGDSVK | GRAAGTFDS |
| 7 | not detected | 0 of 3 | GFTLNSYGIS | VIYSDGRRTFYGNSVK | GDAAGTKDS |
| 8 | 1.77 | 3 of 3 | GFTLNKYGIS | VIYSDGRRTHYEDSVK | GRAAGTFDS |
| 9 | 0.99 | 3 of 3 | GFTLNSYGIS | VIYSDGRRTFYGDSVE | GRAAGTFDN |
| 10 | not detected | 0 of 3 | GFTLNSYGIS | AYYSDGRRTFYGESVK | GRAAGTFDS |
| 11 | not detected | 0 of 3 | PFTLNSSGIS | VIYSDGRGTFYGDSVK | GRAAGTFDS |
| 12 | 0.80 | 3 of 3 | EFTLNMYGIS | VIYSDGRRTFYQDSVK | GRAAGTFDS |
| 13 | not detected | 0 of 3 | GFTKNSYGIS | VIMSDGRRTFYGDSVK | GRAAGTVDS |
| 14 | 2.06 | 1 of 3 | GFTLNSYGIS | KIYSDGRRTMYGDSVK | GRAAPTFDS |
| 15 | not detected | 0 of 3 | GFSLNSYGIS | VIYSNGRRTFYGDSVK | VRAAGTFDS |
| 16 | not detected | 0 of 3 | GFTLNSYGIL | VIYSDGRRTFYGCSVK | GRAAKTFDS |
| 17 | 4.58 | 1 of 3 | GFELNSYGIS | VIYSDGRRTFYGDLVK | GRAAGTFES |
| 18 | not detected | 0 of 3 | WFTLNSYGIS | VIYSDGRGGFYGDSVK | GRAAGTFDS |
| 19 | 5.59 | 1 of 3 | GFTLNSYGIG | VIYHDGRRTFWGDSVK | GRAAGTFDS |
| 20 | 2.59 | 3 of 3 | GFTLNSYGIS | VIYHDGRRTAYGDSVK | GRAAGTFQS |
| 21 | not detected | 0 of 3 | TFTLASYGIK | VIYSDGRRTFYGDSVK | GRAAGTFDS |
| 22 | not detected | 0 of 3 | GFSLNSYGIS | VIYSDGRRTFYGDSVV | TRAAGTFDS |
| 23 | 4.93 | 1 of 3 | GFTLQCYGIS | VIYSDGRRTFYGISVK | GRAAGTFDS |
| 24 | 5.18 | 2 of 3 | GFTLNSSGIS | VIYSDGRRQFYGDSVK | GRAAGRFDS |
| 25 | 3.47 | 2 of 3 | GFTLNSWGIS | VIYSDGRRTFYGDSVK | GGAAGTFFS |
| 26 | 4.07 | 2 of 3 | GFTQNSYGIS | HIYSDGRATFYGDSVK | GRAAGTFDS |
| 27 | not detected | 0 of 3 | GFTLNSYGIS | VIYSCGRRTFYGDSVK | GREAGTHDS |
| 28 | not detected | 0 of 3 | GFTLNSYGIS | VIYSYGRRTCYGDSWK | GRAAGTFDS |
| 29 | 5.64 | 2 of 3 | GFTLNSYGIS | MIYSDGRRSFYCDSVK | GRAAGTFDS |
| 30 | 2.34 | 1 of 3 | GFTLNSYGIS | VIYSDGRRTFYDWEVK | GRAAGTFDS |
| 31 | not detected | 0 of 3 | GFTLNSYGIS | VIYSDGRFTFYGDSVK | GRAATTFDS |
| 32 | 4.52 | 2 of 3 | GFTLNSYGIS | VIYSYGRRTFRTDSVK | GRAAGTFDS |
| 33 | not detected | 0 of 3 | GFTLNYNGIS | VIYSDGRRTFYGDSVK | GRAAGTFDE |
| 34 | not detected | 0 of 3 | GFTLNSYGRS | VIYSDGRRTKYGDSVD | GRAAGTFDS |
| 35 | not detected | 0 of 3 | GFTTNSYGIQ | VIYSDGRRTFYGDSVK | GRAAGTFPS |
| 36 | not detected | 0 of 3 | GFTLNSYGIE | VIYSDGRRTPYADSVK | GRAAGTFDS |
| 37 | 1.07 | 3 of 3 | GFTLNSYGIS | VIYADGRRTFYGDSSK | GRAAGTFDS |
| 38 | not detected | 0 of 3 | GFFLNSYGDS | VIYSDGRRAFYGDSVK | GRAAGTFDS |
| 39 | 3.26 | 1 of 3 | GFTLYSYGIF | VIYSDGRFTFYGDSVK | GRAAGTFDS |
| 40 | 3.86 | 2 of 3 | GFYLNSYGIS | PIYSDGRRTFYGGSVK | GRAAGTFDS |
| 41 | not detected | 0 of 3 | GFTLNSYGIS | VIFSCGRRTFYGDSVK | GRWAGTFDS |
| 42 | 4.51 | 2 of 3 | GFTLNSYGIS | VNYSDGRRTTYGDSVK | GTAAGTFDS |
| 43 | not detected | 0 of 3 | GFTLNSYGIS | VGYSDGRRTMYGDSVE | GRAAGTFDS |
| 44 | 2.70 | 3 of 3 | GFTLNSYGIS | VIYSDGRRTFFGDSVK | GRAAGTVDN |
| 45 | not detected | 0 of 3 | GFTLNSYGIS | VIYSDNRRTACGDSVK | GRAAGTFDS |
| 46 | 1.34 | 3 of 3 | GFTLNSYGIS | VIYSDGRRTFYGQSVK | GRAWGTIDS |
| 47 | not detected | 0 of 3 | GFILNSYGIS | VIYSDGRRTFYGDSVK | GRAHGTHDS |
| 48 | 4.38 | 3 of 3 | GFTGNSYGIS | VIYSDGRRKFYGDSVK | GRAAFTFDS |

A selection of 8 entries from above:

| CDR-H1 | CDR-H2 | CDR-H3 | log10 Kd (nM), mean | detected |
|---|---|---|---|---|
| GFTLNSYGIS | VIYSDGRRTFYDWEVK | GRAAGTFDS | 2.34 | 1 of 3 |
| GFTLNSWGIS | VIYSDGRRTFYGDSVK | GGAAGTFFS | 3.47 | 2 of 3 |
| PFTLNSSGIS | VIYSDGRGTFYGDSVK | GRAAGTFDS | not detected | 0 of 3 |
| GFTKNSYGIS | VIMSDGRRTFYGDSVK | GRAAGTVDS | not detected | 0 of 3 |
| GFTLQCYGIS | VIYSDGRRTFYGISVK | GRAAGTFDS | 4.93 | 1 of 3 |
| TFTLASYGIK | VIYSDGRRTFYGDSVK | GRAAGTFDS | not detected | 0 of 3 |
| GFELNSYGIS | VIYSDGRRTFYGDLVK | GRAAGTFES | 4.58 | 1 of 3 |
| GFTLNYNGIS | VIYSDGRRTFYGDSVK | GRAAGTFDE | not detected | 0 of 3 |